Results reported in paper PMC7904827, “Development of water-soluble prodrugs of the bisdioxopiperazine topoisomerase IIβ inhibitor ICRF-193 as potential cardioprotective agents against anthracycline cardiotoxicity” (Scientific Reports, 2021).

What was measured:
[1] = Approximate solubility in distilled water at room temperature; format: physicochemical
Method: To improve the solubility of ICRF-193 and enable future in vivo examination of its cardioprotective properties against ANT cardiotoxicity, we prepared three prodrugs (GK-667, GK-678 and GK-691, Fig. 1d) utilizing a concept similar to the design of sobuzoxane. The syntheses of the target prodrugs were performed according to a known three-step procedure with some modifications. Target prodrugs GK-667, GK-678 and GK-691 were obtained in 34%, 37% and 17% overall yields, respectively. […] The resulting solutions remained physically stable for at least two hours at room temperature.

[2] = Process stability in untreated plasma; format: in vitro ADME, rabbit; details: 23 °C, 20 min
Method: Linearity was tested within the concentration range of 0.2 – 100 μM for all compounds in DMEM, the buffer and plasma and 10-100 pmol/106cells in NVCMs (method I). For method II, the concentration ranges 0.01-15 μM and 0.01-1 μM were used for determination of ICRF-193 and ICRF-193met in plasma, respectively. Unweighted and weighted (1/x and 1/x2) linear regression was applied to obtain the best fitting calibration model. […]
(§1) Stability of the analytes was examined at low and high concentrations. Process s tability (n=3) in plasma was tested for 20 min at either laboratory temperature (23 °C) or on ice (4 °C, only for GK-667). Post-preparation stability was examined for 8 to 10 h in an autosampler (8 °C, n=3) for all treated matrices. […]

[3] = Freeze-thaw and storage stability in plasma at -80 °C; format: in vitro ADME, rabbit; details: for % of initial concentration, 1st freeze-thaw cycle / % of initial concentration, 2nd freeze-thaw cycle: plasma, -80 °C
Method: ICRF-193 and ICRF-193met in plasma, respectively. Unweighted and weighted (1/x and 1/x2) linear regression was applied to obtain the best fitting calibration model. […]
as §1, with “matrices. Freeze-thaw stability of ICRF-193 and ICRF-193met in” for “matrices.”
plasma was tested at -80 °C and the freezing cycle was repeated twice (n=3). […]

[4] = Post-preparation stability of the extracted analytes in autosampler (8 °C); format: physicochemical
Method: Linearity was tested within the concentration range of 0.2 – 100 μM for all compounds in DMEM, the buffer and plasma and 10-100 pmol/106cells in NVCMs (method I). For method II, the concentration ranges 0.01-15 μM and 0.01-1 μM were used for determination of ICRF-193 and ICRF-193met in plasma, respectively. Unweighted and weighted (1/x and 1/x2) linear regression was applied to obtain the best fitting calibration model.
Accuracy and precision were calculated at 4 levels (LLOQ, low, medium and high concentrations). Five quality control (QC) samples were used for all concentration levels. […]
as §1, with “matrices. Freeze-thaw stability of ICRF-193 and ICRF-193met in” for “matrices.”
plasma was tested at -80 °C and the freezing cycle was repeated twice (n=3). The buffer, DMEM, NVCMs and plasma samples containing GK -667 from in vitro studies and from first intervals of pharmacokinetic study (up to 20 min) w ere treated and analyzed immediately after […]

[5] = system: neonatal ventricular cardiomyocytes (NVCMs); experiment: Intracellular concentrations in NVCMs after incubation with GK-667; format: in vitro ADME, rat
Method: All samples were spiked with the internal standards. DMEM or buffer (100 μL) was diluted with an ice-cold methanol/water mixture (20:80, v/v), mixed and analyzed. Plasma (50 μL) was precipitated with ice-cold methanol (1:5, v/v), mixed (20 s) and centrifuged (10 min, 10,000 rpm, 4 °C). NVCM pellets (4.8 × 10^6 cells) were precipitated with ice-cold methanol (250 μL), mixed (20 s), sonicated in a cold ultrasonic bath (75 s), mixed (30 s) and centrifuged (10 min, 10,000 rpm, 4 °C). The supernatants from the plasma and NVCM extractions were filtered (0.22 μm, PVDF) prior to analysis. For assay of the prodrugs, the samples were acidified with formic acid to a final concentration of 0.5%.
GK-667 (100 μM) was incubated (37 °C, 5% CO2, CelCulture Incubator) with NVCMs in the medium (DMEM/F12 supplemented with 1% P/S) for 24 h. Both DMEM and NVCMs were harvested at 3, 6, 12 and 24 h. Immediately after sampling, DMEM was treated and analyzed. Cardiomyocytes were scrapped, washed twice with PBS buffer (4 °C), and centrifuged (700 × g, 10 min, 4 °C). The redundant supernatant was discarded, and the pellet was immediately treated and analyzed. All experiments were performed in triplicate, and the results are expressed as the mean ± SD.

[6] = ICRF-193 release from GK-667 in rabbit plasma in vitro; format: in vitro ADME; details: GK-667 100 µM, 37 °C
Method: In the next step, the release of ICRF-193 was studied at two concentrations (10 and 100 μM) in rabbit plasma as the relevant biological environment for the in vivo experiments. In these experiments, both GK-667 and ICRF-193 were incubated in rabbit plasma (37 °C) in a thermomixer (350 rpm).
From all of the above described experiments, samples were taken at predefined intervals, treated and immediately analyzed. All experiments were performed in four replicates, and the results are expressed as the mean ± SD.

[7] = In vivo pharmacokinetic study of GK-667 in rabbits, noncompartmental analysis; parameters: species or system rabbit
Method: GK-667 was freshly dissolved in saline (5 mg/mL) before each administration. New Zealand White male rabbits (n = 6, ∼3.8 kg) received GK-667 (5 mg/kg) administered as a single slow (2 min) intravenous dose bolus to the ear marginal vein. Blood (∼1 mL) was sampled from veins on the contralateral ear at selected time points after drug administration (5 min to 9 h) into BD Vacutainers (BD Biosciences, Plymouth, UK) containing lithium heparin. Collected blood samples were immediately centrifuged (2 min, 3000 rpm, 4 °C), and plasma samples were harvested directly.
Plasma samples taken 0 to 20 min after GK-667 administration were immediately processed by the addition of formic acid and precipitation with ice-cold methanol. The supernatants were then analyzed for all analytes, including the intact prodrug. This was essential to ensure the appropriate determination of highly labile GK-667 at the first sampling intervals, and the whole procedure was validated for this purpose. […] Thus, all following plasma samples were immediately shock-frozen in liquid nitrogen and stored at -80 °C until analysis.
For drug administration and blood sampling, light anesthesia was induced in rabbits with a mixture of ketamine (25 mg/kg, i.m.) and midazolam (2.5 mg/kg, i.m.); sedation was then maintained with midazolam when needed. The blood withdrawn from the animals was compensated with an appropriate volume of sterile saline. All in vivo experiments and procedures were approved and supervised by the Animal Welfare Committee of the Faculty of Medicine in Hradec Kralove (Charles University), and the experiments were performed in compliance with the ARRIVE guidelines.
(§2) Standard noncompartmental analysis was performed using Kinetica software (version 4.0, Thermo Fisher Scientific Inc., USA). The population parameter estimation for nonlinear mixed effect models was conducted using Monolix version 2019R2 software (Antony, France: Lixoft SAS, 2019, http://lixoft.com/products/monolix/). The stochastic approximation expectation maximization (SAEM) algorithm coupled with Markov Chain Monte Carlo (MCMC) without the use of approximations (linearization) was used for the estimation of the likelihood. For evaluation of the goodness-of-fit, the following plots were assessed: observed versus individual predicted concentrations, weighted residuals versus time and weighted residuals versus predictions. Individual parameter values were obtained as empirical Bayes estimates. A visual predictive check with 1000 simulated data sets was performed.

[8] = Population pharmacokinetic analysis in rabbits; format: in vivo, rabbit; details: population median, F = 1
Method: Assuming an instant input of ICRF-193 solely into the central compartment (V1) and complete conversion of the administered dose of GK-667 into ICRF-193, the disposition of ICRF-193 in plasma was best described by a three-compartment open model with first-order elimination from the central compartment. In the joint model for ICRF-193 and ICRF-193met, formation of the metabolite was modeled as a first-order process (Fig. S5), and one volume of distribution for the metabolite (V4) was added to three volumes for ICRF-193 (V1, V2, and V3).
All model parameters of ICRF-193 and ICRF-193met could not be simultaneously estimated by stochastic approximation expectation maximization (SAEM) in one step. Instead, population medians and between-subject standard deviations were first estimated for the volume (V1, V2 and V3) and clearance parameters (CLtot) for the parent molecule using the concentrations of ICRF-193. In the second step, the ICRF-193met concentration data were added, median estimates for the parameters of ICRF-193 from the first step were used as initial estimates, and their standard deviations were fixed. A maximum likelihood estimation was used to calculate the parameters CLmet, CLother, V4, and CLICRF-193met. For the remaining parameters of the parent-metabolite model (Fig. S5), a maximum a posteriori (MAP) estimation was adopted. The residual error in the population kinetic analysis was best described with a proportional model.
as §2
Figure S5: Schematic representation of the four-compartmental parent-metabolite model […]
Hydrolysis of GK-667 is very fast and the parent compound was essentially completely cleared from plasma within 10 min after injection. ICRF-193 was quantitatively dominating at the first sampling interval (5 min). Therefore, the model assumes instant input and complete absolute […]
bioavailability of ICRF-193 (F=1). V1, V2 and V3 are volumes of central and peripheral […]
compartments for ICRF-193 and, V4 is the distribution volume for ICRF-193met. The clearance […]
characteristics are as follows: CLmet describes formation of ICRF-193met from ICRF-193; CLother […]
summarizes clearances of ICRF-193 via other elimination pathways; Q12 and Q13 are inter- […]
compartmental clearances; CLICRF-193met is the total clearance of the metabolite.
(1 picture or pasted object on this page, not shown here)

[9] = rabbits n = 6, GK-667 5 mg/kg i.v., NCA
[10] = rabbits n = 6, GK-667 5 mg/kg i.v., NCA, assuming F = 1

ICRF-193 [reference compound]
approximate solubility in distilled water [1]: ≤ 5 µg/mL | stability in untreated plasma at laboratory temperature [2]: stable | degradation in plasma on storage ([3]; -80 °C for 1 month): no significant degradation | % of initial concentration, 1st freeze-thaw cycle ([3]; initial concentration 0.05 µM): 98.8 ± 5.3% | % of initial concentration, 2nd freeze-thaw cycle ([3]; initial concentration 0.05 µM): 96.9 ± 8.2% | % of initial concentration, 1st freeze-thaw cycle ([3]; initial concentration 10.00 µM): 94.3 ± 2.3% | % of initial concentration, 2nd freeze-thaw cycle ([3]; initial concentration 10.00 µM): 89.6 ± 0.6% | percentage of initial concentration in autosampler ([4]; extracted DMEM, 100 µM, 0 h): 98.5% | percentage of initial concentration in autosampler ([4]; extracted DMEM, 100 µM, 8 h): 101.2% | percentage of initial concentration in autosampler ([4]; extracted DMEM, 100 µM, 10 h): 101.3% | percentage of initial concentration in autosampler ([4]; extracted NVCMs, 100 pmol/106 cells, 0 h): 100.0% | percentage of initial concentration in autosampler ([4]; extracted NVCMs, 100 pmol/106 cells, 8 h): 107.6% | percentage of initial concentration in autosampler ([4]; extracted NVCMs, 100 pmol/106 cells, 10 h): 108.4% | percentage of initial concentration in autosampler ([4]; extracted buffer, 100 µM, 0 h): 98.7% | percentage of initial concentration in autosampler ([4]; extracted buffer, 100 µM, 8 h): 95.4% | percentage of initial concentration in autosampler ([4]; extracted buffer, 100 µM, 10 h): 98.3% | percentage of initial concentration in autosampler ([4]; extracted plasma, 100 µM, 0 h): 99.8% | percentage of initial concentration in autosampler ([4]; extracted plasma, 100 µM, 8 h): 96.4% | percentage of initial concentration in autosampler ([4]; extracted plasma, 100 µM, 10 h): 93.8% | highest intracellular concentration of ICRF-193 ([5]; NVCMs incubated with GK-667 100 µM, 37 °C, first sampling interval (3 h)): approximately 10 pmol/10^6 cells | peak intracellular ICRF-193 concentration relative to that previously determined for DEX ([5]; NVCMs, GK-667 100 µM, DEX value from ref 20): approximately 50% | peak concentration of ICRF-193 released in plasma [6]: 65 µM | time of the ICRF-193 peak concentration in plasma [6]: 30 min | ICRF-193-to-GK-667 concentration ratio ([7]; rabbit plasma, 5 min after GK-667 5 mg/kg i.v.): 7.2 (range: 1.5–14.8) | AUClast [7, 9]: 4.4 µM·h | AUCtot [7, 9]: 4.4 µM·h | AUMClast [7, 9]: 2.9 h^2∙µM | AUMCtot [7, 9]: 3.0 h^2∙µM | MRT [7, 9]: 41.4 min | Tmax [7, 9]: 5 min | λz [7, 9]: 0.94 h⁻¹ | CL [7, 10]: 31.7 mL/min/kg | Vss [7, 10]: 1.3 L/kg | Vz [7, 10]: 2.2 L/kg | t1/2 ([7]; rabbits n = 6, GK-667 5 mg/kg i.v., NCA, terminal half-life): 48 min and 46.8 min | plasma concentration of ICRF-193 ([7]; rabbits, 30 min after GK-667 5 mg/kg i.v.): approximately 2 µM | plasma concentration of ICRF-193 as part of the corresponding cmax ([7]; rabbits, 4 h post injection of GK-667 5 mg/kg i.v.): less than 1% | maximal plasma concentration of ICRF-193 over the lowest effective concentration in vitro (0.3 µM) ([7]; rabbits, GK-667 5 mg/kg i.v.): approximately 30 fold | time ICRF-193 plasma concentration remained in the in vitro effective concentration range ([7]; rabbits, GK-667 5 mg/kg i.v.): approximately 3 h | CLmet ([8]; formation clearance of ICRF-193met from ICRF-193, rabbits): 1.35 mL/min/kg | CLother ([8]; rabbits, GK-667 5 mg/kg i.v.): 26.7 mL/min/kg | CLtot ([8]; rabbits, GK-667 5 mg/kg i.v.): 28.3 mL/min/kg | Q12 ([8]; rabbits, GK-667 5 mg/kg i.v.): 23.3 mL/min/kg | Q13 ([8]; rabbits, GK-667 5 mg/kg i.v.): 0.583 mL/min/kg | V1 ([8]; rabbits, GK-667 5 mg/kg i.v.): 0.36 L/kg | V2 ([8]; rabbits, GK-667 5 mg/kg i.v.): 0.67 L/kg | V3 ([8]; rabbits, GK-667 5 mg/kg i.v.): 0.98 L/kg

C[C@H]([C@H](C)N(CC(N)=O)CC(=O)O)N(CC(N)=O)CC(=O)O [ICRF-193met]
percentage of initial concentration in autosampler ([4]; extracted buffer, 100 µM, 10 h): 100.9%

“And” between values parts separate entries of the source, which are not always exact repeats. Equal entries are not always repeated.
